Laboratory results published in PubChem BioAssay AID897 (National Center for Advancing Translational Sciences (NCATS), 2007).
The list shows a part of the results, in another mix than the full data. Inconclusive results are not listed. Activity calls are given as the source filed them. Calls follow the shape of the dose curve; as a rule, active = well fitted inhibition curve with a large enough effect in the main read-out, with a control signal flat (not every such curve was filed as active); inconclusive = small, poorly fitted or top-dose-only effect, or a change in a side signal; inactive = no such curve, though single readings can be large or run the other way.

Protein sequences, listed by entry. Tags and fused reporters are not part of them. Residues count along the entry.
UniProt P55210, 24-198 limits assumed: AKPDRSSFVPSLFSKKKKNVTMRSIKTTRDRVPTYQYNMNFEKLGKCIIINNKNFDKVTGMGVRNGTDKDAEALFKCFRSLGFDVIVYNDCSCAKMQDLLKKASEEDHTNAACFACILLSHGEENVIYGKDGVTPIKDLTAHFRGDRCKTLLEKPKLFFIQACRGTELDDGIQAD
UniProt P55210, 207-303 limits assumed: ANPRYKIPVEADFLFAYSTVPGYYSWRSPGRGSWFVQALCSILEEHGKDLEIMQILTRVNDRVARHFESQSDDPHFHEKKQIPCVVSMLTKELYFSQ

Molecular target: Caspase-7 (Homo sapiens) (UniProt P55210)
Experiment: Confirmation Concentration-Response Assay for Allosteric/Competitive Inhibitors of Caspase-7
Settings: recombinant caspase-7, fluorogenic substrate cleavage; at 57.5 µM (top of the series)
Excerpt: NIH Molecular Libraries Screening Centers Network [MLSCN]
NIH Chemical Genomics Center [NCGC]
PI Name: Dr. James Wells,
Dr. Enrique Perez-Paya, Dr.Janice Williams, Dr. Dennis Wolan, a person
The caspases (Cysteine Aspartyl Protease) comprise a related family of 14 dimeric proteases that are critical mediators of apoptosis (programmed cell death) and inflammation. The caspases represent an important class of drug targets for stroke, ischemia, cancer and inflammatory diseases. […] One goal of this project was to identify compounds that act as allosteric inhibitors via stabilizing the procaspase form of the enzyme. […]
The biochemical assay was configured using purified caspase 7 at a high enzyme concentration to promote formation of the homodimers and thus facilitate the identification of allosteric inhibitors. […] After initiation of the assay with substrate the plates were rapidly read using an automated robotic system (Kalypsys, Inc.) to maintain consistent timing. […]
Caspase 7 was prepared in buffer (50 mM HEPES pH 7.5, 50 mM KCl, 200 mM NaCl, 10 mM DTT, 0.1% CHAPS) at a concentration of 66.6 nM and 3 uL was dispensed to all wells using black solid Kalypsys 1536-well plates. […] The plates were then exposed using 405 nm excitation/520 nm emission filters for 4 sec and read at 20 sec intervals for 3 min. […]

**Q.** For `C/C1=C2N=C(/C=C3N=C(/C(C)=C4\[N-][C@@](C)([C@H]5N=C1[C@@](C)(CCC(=O)NC[C@H](C)OP(=O)([O-])O[C@@H]1[C@H](O)[C@H](n6cnc7cc(C)c(C)cc76)O[C@@H]1CO)[C@@H]5CC(N)=O)[C@](C)(CC(N)=O)[C@H]4CCC(N)=O)[C@@](C)(CC(N)=O)[C@@H]\3CCC(N)=O)C(C)(C)[C@@H]/2CCC(N)=O.[C-]#N.[Co+3]`, which activity change, negative = inhibition is on record?
**A.** The activity change, negative = inhibition was inactive: -82.7%.
